This assay deals with LoVo-Doxo-resistant (LoVo/DX) cells. As to conditions: 4 hr treatment.

Values after ≈ are worked out from the molar mass of the structure shown.

In turn, `COc1cccc2c1C(=O)c1c(O)c3c(c(O)c1C2=O)C[C@@](O)(C(=O)COC1(OCC(=O)O)CCCCC1)C[C@@H]3O[C@H]1C[C@H](N2CCO[C@H](OC)C2)[C@H](O)[C@H](C)O1` [Compound 3', 14-O-(1-carboxymethyloxy-cyclohexyl)-3'-deamino-3'-[2(S)-methoxy-4-morpholinyl]doxorubicin] showed a R.I. = Resistance Index = (IC50 LoVo/DX)/(IC50 LoVo) (LoVo/DX vs LoVo) of 3. Moreover, the “ID50 (IC50, concentration inhibiting by 50% colony growth), LoVo/DX” value (LoVo/DX) is 0.745 µg/mL (≈ 0.931 µM).

The record behind these values is US5387578A (priority 1990, dated 1995).
